Reference: ChEMBL document CHEMBL4425156, “The evolution of P2X7 antagonists with a focus on CNS indications” (Bioorg Med Chem Lett, 2016)

Amino acid sequences for entries named in this document (tags omitted). A change or cut given only in a name is not applied to a line headed by its entry.
UniProt Q99572: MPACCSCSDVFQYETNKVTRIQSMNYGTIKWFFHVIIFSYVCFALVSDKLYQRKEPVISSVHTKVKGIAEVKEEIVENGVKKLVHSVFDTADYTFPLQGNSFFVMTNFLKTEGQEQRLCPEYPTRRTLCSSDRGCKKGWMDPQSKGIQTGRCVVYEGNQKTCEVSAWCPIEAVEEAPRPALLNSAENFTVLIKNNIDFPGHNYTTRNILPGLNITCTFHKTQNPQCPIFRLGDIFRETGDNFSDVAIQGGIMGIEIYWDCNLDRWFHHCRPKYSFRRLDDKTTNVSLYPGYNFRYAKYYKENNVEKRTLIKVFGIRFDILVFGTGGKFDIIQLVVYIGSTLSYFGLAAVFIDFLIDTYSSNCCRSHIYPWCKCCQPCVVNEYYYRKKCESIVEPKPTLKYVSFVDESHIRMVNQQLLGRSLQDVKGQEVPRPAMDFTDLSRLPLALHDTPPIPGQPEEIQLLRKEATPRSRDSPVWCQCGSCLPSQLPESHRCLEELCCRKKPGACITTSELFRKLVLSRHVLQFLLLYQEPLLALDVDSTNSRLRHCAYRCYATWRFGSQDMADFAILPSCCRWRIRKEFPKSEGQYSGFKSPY

Experiments:
P2X purinoceptor 7 [1] = target: T1, P2X purinoceptor 7 (Rattus norvegicus, UniProt Q64663); experiment: Antagonist activity at rat P2X7 receptor expressed in 1321N1 cells assessed as inhibition of BzATP-induced calcium mobilization incubated for 30 mins measured after 180 seconds by calcium-4 dye based FLIPR assay; format: cell-based
T1 sequence (Q64663 whole entry): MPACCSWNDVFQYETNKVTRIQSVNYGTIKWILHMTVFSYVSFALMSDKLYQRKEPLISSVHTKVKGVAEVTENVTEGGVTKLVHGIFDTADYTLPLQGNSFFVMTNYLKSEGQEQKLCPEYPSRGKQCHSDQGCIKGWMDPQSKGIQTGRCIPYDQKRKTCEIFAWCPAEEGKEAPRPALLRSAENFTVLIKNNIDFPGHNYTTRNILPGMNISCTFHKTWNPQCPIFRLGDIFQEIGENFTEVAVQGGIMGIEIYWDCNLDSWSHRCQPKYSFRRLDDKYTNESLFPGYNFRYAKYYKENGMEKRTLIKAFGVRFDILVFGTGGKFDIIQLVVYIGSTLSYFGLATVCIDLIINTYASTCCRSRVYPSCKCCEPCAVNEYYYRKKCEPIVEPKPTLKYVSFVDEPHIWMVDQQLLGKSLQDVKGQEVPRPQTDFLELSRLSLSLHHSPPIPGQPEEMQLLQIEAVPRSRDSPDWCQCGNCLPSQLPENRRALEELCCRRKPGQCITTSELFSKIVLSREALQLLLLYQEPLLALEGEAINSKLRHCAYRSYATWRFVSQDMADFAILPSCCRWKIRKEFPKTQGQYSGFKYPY

P2X purinoceptor 7 [2] = target: P2X purinoceptor 7 (Homo sapiens, UniProt Q99572); experiment: Antagonist activity at P2X7 receptor in human whole blood assessed as inhibition of BzATP-induced IL-1beta release preincubated for 30 mins followed by stimulation with BzATP for […] by ELISA; format: tissue-based

| IC50 (P2X purinoceptor 7 [1]) [nM] | EC50 (P2X purinoceptor 7 [2]) [nM] | Compound |
| --- | --- | --- |
| 4790 | – | Cc1nc2c(c(-c3ccccc3)n1)CCN(C(=O)c1cccc(C(F)(F)F)c1Cl)C2 |
| – | 158 | Cc1nc2c(c(-c3ccn[nH]3)n1)C[C@@H](C)N(C(=O)c1cccc(C(F)(F)F)c1Cl)C2 |
| 17 | – | Cc1nc2c(c(-c3ccn[nH]3)n1)C[C@@H](C)N(C(=O)c1ccc(Cl)cc1F)C2 |
